In patent US6302119A, “Low odor permanent waving compositions containing a disulfide” (priority 1999, dated 2001):
Values joined by “and” are separate entries in the source; they are usually repeats but may differ in a detail not shown here. Identical values can stand only once.

Assay: Odor evaluation by 3-4 panelists of activator, waving composition and hair tresses
Procedure: The disulfide or thiol additive was added in the concentration indicated in Tables 3 and 4, to 200 g of neat glyceryl monothioglycolate (GMr) in a 250 mL beaker.
Odor evaluation was conducted by 3-4 panelists who rated the odors on a scale of 1-5 where 1=no malodor and 5=extreme malodor. […] To this solution was added two tresses of dark brown, virgin hair (1 inch wide, 6 inches long), that had been washed with a 10% solution of SLS and soaked in synthetic sweate^8 at 37° C. for 17 hr, then lightly rinsed. The beaker containing the GMT activator was covered with foil and was allowed to sit for 5 to 10 minutes prior to odor evaluation. The tresses were then allowed to process in the wave composition for 20 minutes at room temperature in a covered beaker. The tresses were rinsed with tap water, towel blotted, then added to 80 mL of Matrix Opticurl Rebonding Neutralizer and processed for 5 minutes. After rinsing, the damp hair was evaluated for odor.
8. Recipe for synthetic sweat: 10 g sodium chloride, 1 g potassium hydrogen phosphate, 0.25 g histidine, lactic acid to adjust pH to 3.2 and water to make 1 L.

SMILES: CC(C)(CO)[C@@H](O)C(=O)NCCC(=O)NCCSSCCNC(=O)CCNC(=O)[C@H](O)C(C)(C)CO [pantethine]
- Odor of hair rating: 1.4 and 2.8
- Odor rating of waving composition (with activator): 4.5 and 3.0
